# Results: ChEMBL document CHEMBL3621093, “Design, synthesis and evaluation of thiohydantoin derivatives as potent topoisomerase I (Top1) inhibitors with anticancer activity” (Eur J Med Chem, 2015)
# System: Sf9
# Experiment: Selectivity ratio of EC50 for Leishmania donovani Top1(large/ small subunits) expressed in Escherichia coli BL21 (DE3) pLysS cells to EC50 for wild type recombinant human Top1 expressed in baculovirus infected insect Sf9 cells
smiles,measurement,value
COc1ccc(-c2ccc(/C=C3/NC(=S)NC3=O)s2)cn1,Ratio EC50,5
